Biological target: Acetylcholinesterase (Homo sapiens, UniProt P22303)

Amino acid sequences for entries named in this document (tags omitted). Residues count along the entry.
UniProt P22303, 32-614 limits assumed: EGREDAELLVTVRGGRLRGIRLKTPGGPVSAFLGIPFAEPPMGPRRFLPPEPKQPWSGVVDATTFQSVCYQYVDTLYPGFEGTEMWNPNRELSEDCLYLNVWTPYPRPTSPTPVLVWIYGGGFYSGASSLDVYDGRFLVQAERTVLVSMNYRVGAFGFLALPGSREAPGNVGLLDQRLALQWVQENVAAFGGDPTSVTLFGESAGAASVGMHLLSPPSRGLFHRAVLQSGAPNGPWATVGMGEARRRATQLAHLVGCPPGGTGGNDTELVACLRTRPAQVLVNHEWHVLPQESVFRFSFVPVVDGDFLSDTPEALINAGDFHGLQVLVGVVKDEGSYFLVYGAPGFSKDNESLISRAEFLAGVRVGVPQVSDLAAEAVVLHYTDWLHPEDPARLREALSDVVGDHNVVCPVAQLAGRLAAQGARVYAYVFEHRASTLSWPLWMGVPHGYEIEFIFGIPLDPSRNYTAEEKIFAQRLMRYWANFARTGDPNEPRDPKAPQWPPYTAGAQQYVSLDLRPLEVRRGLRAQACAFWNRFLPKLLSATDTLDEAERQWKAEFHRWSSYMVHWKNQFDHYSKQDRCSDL

With `C/C(=N\O)c1ccc(Cl)c(NC(=O)c2c(-c3ccccc3Cl)noc2C)c1` the IC50 was 6.7 µM.

From ChEMBL document CHEMBL1155460, “Prediction of acetylcholinesterase inhibitors and characterization of correlative molecular descriptors by machine learning methods” (Eur J Med Chem, 2010)
